Laboratory results from ChEMBL document CHEMBL1122429, “In vitro and in vivo protection of acetylcholinesterase against organophosphate poisoning by pretreatment with a novel derivative of 1,3,2-dioxaphosphorinane 2-oxide” (1983).

Protein sequences, listed by entry. Tags and fused reporters are not part of them. Residues count along the entry.
UniProt Q03311, 30-603 limits assumed: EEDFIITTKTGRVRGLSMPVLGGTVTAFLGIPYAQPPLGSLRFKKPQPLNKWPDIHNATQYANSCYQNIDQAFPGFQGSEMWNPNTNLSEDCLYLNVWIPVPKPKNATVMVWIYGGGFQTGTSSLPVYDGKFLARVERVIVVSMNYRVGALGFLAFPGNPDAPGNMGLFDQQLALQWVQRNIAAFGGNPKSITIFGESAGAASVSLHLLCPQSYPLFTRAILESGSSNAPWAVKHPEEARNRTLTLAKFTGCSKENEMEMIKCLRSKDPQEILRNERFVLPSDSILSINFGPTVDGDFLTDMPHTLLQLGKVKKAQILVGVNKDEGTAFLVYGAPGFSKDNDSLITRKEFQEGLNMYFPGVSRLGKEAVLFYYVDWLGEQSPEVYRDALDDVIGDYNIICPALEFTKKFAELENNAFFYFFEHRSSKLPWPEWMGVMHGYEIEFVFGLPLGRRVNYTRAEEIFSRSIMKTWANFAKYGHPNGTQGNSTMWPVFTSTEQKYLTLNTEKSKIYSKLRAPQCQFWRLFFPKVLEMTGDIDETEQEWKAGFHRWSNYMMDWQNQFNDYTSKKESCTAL
UniProt Q9N1N9, 29-602 limits assumed: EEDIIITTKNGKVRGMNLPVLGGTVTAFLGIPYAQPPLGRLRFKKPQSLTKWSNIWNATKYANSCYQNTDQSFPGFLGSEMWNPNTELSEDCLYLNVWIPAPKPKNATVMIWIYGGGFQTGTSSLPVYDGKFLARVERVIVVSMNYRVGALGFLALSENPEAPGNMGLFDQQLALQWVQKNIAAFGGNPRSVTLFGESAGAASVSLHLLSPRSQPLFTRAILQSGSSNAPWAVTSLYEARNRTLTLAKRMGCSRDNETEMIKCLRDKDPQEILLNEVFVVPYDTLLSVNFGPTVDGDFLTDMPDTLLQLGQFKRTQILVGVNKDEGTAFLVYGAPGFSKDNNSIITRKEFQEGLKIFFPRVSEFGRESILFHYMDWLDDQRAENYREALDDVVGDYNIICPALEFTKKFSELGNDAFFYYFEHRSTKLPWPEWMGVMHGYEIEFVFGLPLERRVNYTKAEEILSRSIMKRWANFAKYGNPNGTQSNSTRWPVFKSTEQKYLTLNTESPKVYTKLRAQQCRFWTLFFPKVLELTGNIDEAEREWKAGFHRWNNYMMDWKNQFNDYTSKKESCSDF
UniProt O42275, 24-633 limits assumed: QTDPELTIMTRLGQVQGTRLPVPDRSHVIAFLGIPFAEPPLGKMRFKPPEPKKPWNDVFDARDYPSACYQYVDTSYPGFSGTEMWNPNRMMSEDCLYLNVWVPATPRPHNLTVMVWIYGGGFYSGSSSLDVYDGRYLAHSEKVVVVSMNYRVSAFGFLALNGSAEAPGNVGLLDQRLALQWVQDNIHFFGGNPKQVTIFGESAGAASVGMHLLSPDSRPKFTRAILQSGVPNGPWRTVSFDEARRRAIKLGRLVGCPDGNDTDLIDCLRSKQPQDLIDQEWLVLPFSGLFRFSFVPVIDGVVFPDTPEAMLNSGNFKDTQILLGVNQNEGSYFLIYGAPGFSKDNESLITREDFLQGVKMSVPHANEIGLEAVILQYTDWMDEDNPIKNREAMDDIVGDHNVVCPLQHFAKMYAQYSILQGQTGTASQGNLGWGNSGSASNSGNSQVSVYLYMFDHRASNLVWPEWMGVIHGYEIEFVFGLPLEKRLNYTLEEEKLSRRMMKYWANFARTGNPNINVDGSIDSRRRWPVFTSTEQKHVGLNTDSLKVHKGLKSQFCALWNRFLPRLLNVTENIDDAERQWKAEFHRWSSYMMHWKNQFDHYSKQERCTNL

What was measured:
[1] = molecular target: Cholinesterase (Mus musculus) (UniProt Q03311); test: Percent activity of mouse serum butyrylcholinesterase prior to reactivation on incubation for 4 hr with compound of 5 uM at 25 degrees
[2] = molecular target: Butyrylcholinesterase (Equus caballus) (UniProt Q9N1N9); test: Percent activity of horse serum butyrylcholinesterase on 20 hours incubation with 5 uM of compound at 25 degree C followed by reactivation with 0.5 mM 2-PAM after 20h
[3] = Substrate concentration constant was evaluated in inhibition of rat brain acetylcholinesterase
[4] = molecular target: Acetylcholinesterase (Electrophorus electricus) (UniProt O42275); test: Percent activity of eel acetylcholinesterase on 4 hours incubation with 5 uM of compound at 25 degree C followed by reactivation with 0.5 mM 2-PAM after 20h
[5] = Spontaneous reactivation rate constant evaluated by dilution method for inhibited eel acetylcholinesterase
[6] = molecular target: Butyrylcholinesterase (Equus caballus) (UniProt Q9N1N9); test: Percent activity of horse serum butyrylcholinesterase prior to reactivation on incubation for 20h with compound of 5 uM at 25 degrees
[7] = molecular target: Cholinesterase (Mus musculus) (UniProt Q03311); test: Percent activity of horse serum butyrylcholinesterase prior to reactivation on incubation for 2 hr with compound of 5 uM at 25 degrees
[8] = Substrate concentration constant was evaluated in inhibition of horse serum butyrylcholinesterase
[9] = molecular target: Butyrylcholinesterase (Equus caballus) (UniProt Q9N1N9); test: Percent activity of horse serum butyrylcholinesterase on 2 hours of incubation with 5 uM at 25 degree C followed by reactivation occurring spontaneously after 20h
[10] = molecular target: Acetylcholinesterase (Electrophorus electricus) (UniProt O42275); test: Percent activity of eel acetylcholinesterase prior to reactivation on incubation for 4 hr with compound of 5 uM at 25 degrees
[11] = molecular target: Butyrylcholinesterase (Equus caballus) (UniProt Q9N1N9); test: Percent activity of horse serum butyrylcholinesterase on 2 hours incubation with 5 uM of compound at 25 degree C followed by reactivation with 0.5 mM 2-PAM after 20h
[12] = Substrate concentration constant was evaluated in inhibition of mouse serum butyrylcholinesterase
[13] = molecular target: Acetylcholinesterase (Electrophorus electricus) (UniProt O42275); test: Percent activity of eel acetylcholinesterase on 2 hours of incubation with 5 uM at 25 degree C followed by reactivation occurring spontaneously after 20h
[14] = molecular target: Cholinesterase (Mus musculus) (UniProt Q03311); test: Percent activity of mouse serum butyrylcholinesterase on 4 hours incubation with 5 uM of compound at 25 degree C followed by reactivation with 0.5 mM 2-PAM after 20h
[15] = molecular target: T1, Acetylcholinesterase (Rattus norvegicus) (UniProt P37136); test: Percent activity of rat brain acetylcholinesterase on 5 hours of incubation with 5 uM at 25 degree C followed by reactivation occurring spontaneously after 20h
T1 sequence (whole entry): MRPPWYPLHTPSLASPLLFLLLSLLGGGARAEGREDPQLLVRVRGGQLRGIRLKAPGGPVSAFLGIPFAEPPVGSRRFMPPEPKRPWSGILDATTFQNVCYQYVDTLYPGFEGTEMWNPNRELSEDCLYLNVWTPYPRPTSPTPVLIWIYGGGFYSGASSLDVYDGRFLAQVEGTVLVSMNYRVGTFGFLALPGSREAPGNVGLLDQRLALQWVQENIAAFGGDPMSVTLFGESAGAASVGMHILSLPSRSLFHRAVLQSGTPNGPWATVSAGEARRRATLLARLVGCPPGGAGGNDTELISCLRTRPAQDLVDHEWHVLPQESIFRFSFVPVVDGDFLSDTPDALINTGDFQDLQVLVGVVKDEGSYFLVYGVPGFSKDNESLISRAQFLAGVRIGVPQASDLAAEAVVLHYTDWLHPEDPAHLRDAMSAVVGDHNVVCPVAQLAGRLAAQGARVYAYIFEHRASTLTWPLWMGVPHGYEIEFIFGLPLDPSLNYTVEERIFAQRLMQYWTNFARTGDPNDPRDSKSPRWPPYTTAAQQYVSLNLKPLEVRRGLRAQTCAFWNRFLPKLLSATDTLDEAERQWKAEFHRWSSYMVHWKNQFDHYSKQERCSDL

[16] = Spontaneous reactivation rate constant evaluated by dilution method for inhibited rat brain acetylcholinesterase
[17] = molecular target: Acetylcholinesterase (Electrophorus electricus) (UniProt O42275); test: Percent activity of eel acetylcholinesterase on 20 hours of incubation with 5 uM at 25 degree C followed by reactivation occurring spontaneously after 20h
[18] = molecular target: Acetylcholinesterase (Electrophorus electricus) (UniProt O42275); test: Percent activity of eel acetylcholinesterase prior to reactivation on incubation for 20h with compound of 5 uM at 25 degrees
[19] = molecular target: Cholinesterase (Mus musculus) (UniProt Q03311); test: Percent activity of mouse serum butyrylcholinesterase on 4 hours of incubation with 5 uM at 25 degree C followed by reactivation occurring spontaneously after 20h
[20] = molecular target: Acetylcholinesterase (Electrophorus electricus) (UniProt O42275); test: Percent activity of eel acetylcholinesterase on 4 hours of incubation with 5 uM at 25 degree C followed by reactivation occurring spontaneously after 20h
[21] = molecular target: Acetylcholinesterase (Electrophorus electricus) (UniProt O42275); test: Percent activity of eel acetylcholinesterase prior to reactivation on incubation for 2 hours with compound of 5 uM at 25 degrees
[22] = Substrate concentration constant was evaluated in inhibition of eel acetylcholinesterase
[23] = molecular target: T1, Acetylcholinesterase (Rattus norvegicus); test: Percent activity of rat brain acetylcholinesterase on 5 hours incubation with 5 uM of compound at 25 degree C followed by reactivation with 0.5 mM 2-PAM after 20h
[24] = molecular target: T1, Acetylcholinesterase (Rattus norvegicus); test: Percent activity of rat brain acetylcholinesterase prior to reactivation on incubation for 5 hr with compound of 5 uM at 25 degrees
[25] = Pseudo first order rate constant of compound in inhibition of eel acetylcholinesterase at pH 7.0
[26] = Pseudo first order rate constant of compound in inhibition of rat brain acetylcholinesterase at pH 7.0
[27] = molecular target: Acetylcholinesterase (Electrophorus electricus) (UniProt O42275); test: Percent activity of eel acetylcholinesterase on 2 hours incubation with 5 uM of compound at 25 degree C followed by reactivation with 0.5 mM 2-PAM after 20h
[28] = molecular target: Cholinesterase (Mus musculus) (UniProt Q03311); test: Percent activity of mouse serum butyrylcholinesterase prior to reactivation on incubation for 20 hr with compound of 5 uM at 25 degrees
[29] = Substrate concentration constant was evaluated in inhibition of eel acetylcholinesterase after addition of 2-PAM
[30] = tested on: Mus musculus; test: Percent survival of mice in 24 hr of observation, pretreated with compound dose of 150 mg/kg subcutaneously against soman followed by 60 mg/kg of toxogonin and 11.2 mg/kg of atropine
[31] = molecular target: Butyrylcholinesterase (Equus caballus) (UniProt Q9N1N9); test: Percent activity of horse serum butyrylcholinesterase prior to reactivation on incubation for 4 hr with compound of 5 uM at 25 degrees
[32] = Spontaneous reactivation rate constant evaluated by dilution method for inhibited mouse serum butyrylcholinesterase
[33] = molecular target: Butyrylcholinesterase (Equus caballus) (UniProt Q9N1N9); test: Percent activity of horse serum butyrylcholinesterase on 20 hours of incubation with 5 uM at 25 degree C followed by reactivation occurring spontaneously after 20h
[34] = molecular target: Butyrylcholinesterase (Equus caballus) (UniProt Q9N1N9); test: Percent activity of horse serum butyrylcholinesterase on 4 hours incubation with 5 uM of compound at 25 degree C followed by reactivation with 0.5 mM 2-PAM after 20h
[35] = molecular target: Cholinesterase (Mus musculus) (UniProt Q03311); test: Percent activity of mouse serum butyrylcholinesterase on 20 hours incubation with 5 uM of compound at 25 degree C followed by reactivation with 0.5 mM 2-PAM after 20h
[36] = molecular target: Butyrylcholinesterase (Equus caballus) (UniProt Q9N1N9); test: Percent activity of horse serum butyrylcholinesterase on 4 hours of incubation with 5 uM at 25 degree C followed by reactivation occurring spontaneously after 20h
[37] = Spontaneous reactivation rate constant evaluated by dilution method for inhibited horse serum butyrylcholinesterase
[38] = molecular target: Cholinesterase (Mus musculus) (UniProt Q03311); test: Percent activity of mouse serum butyrylcholinesterase on 20 hours of incubation with 5 uM at 25 degree C followed by reactivation occurring spontaneously after 20h
[39] = Substrate concentration constant was evaluated in inhibition of rat brain acetylcholinesterase after addition of 2-PAM
[40] = molecular target: Acetylcholinesterase (Electrophorus electricus) (UniProt O42275); test: Percent activity of eel acetylcholinesterase on 20 hours incubation with 5 uM of compound at 25 degree C followed by reactivation with 0.5 mM 2-PAM after 20h

## C[N+](C)(C)c1cccc(OP2(=O)OCCCO2)c1
[1]
  Activity: 68%
[2]
  Activity: 31%
[3]
  ks: 0.015 min⁻¹
[4]
  Activity: 98%
[5]
  kr: 0.26 min⁻¹
[6]
  Activity: 10%
[7]
  Activity: 17%
[8]
  ks: < 0.005 min⁻¹
[9]
  Activity: 39%
[10]
  Activity: 65%
[11]
  Activity: 78%
[12]
  ks: < 0.005 min⁻¹
[13]
  Activity: 96%
[14]
  Activity: 78%
[15]
  Activity: 96%
[16]
  kr: 0.11 min⁻¹
[17]
  Activity: 98%
[18]
  Activity: 60%
[19]
  Activity: 78%
[20]
  Activity: 94%
[21]
  Activity: 65%
[22]
  ks: 0.07 min⁻¹
[23]
  Activity: 98%
[24]
  Activity: 30%
[25]
  k': 0.11 min⁻¹
[26]
  k': 0.2 min⁻¹
[27]
  Activity: 100%
[28]
  Activity: 52%
[29]
  ks: 0.08 min⁻¹
[30]
  Survival: 5%
[31]
  Activity: 21%
[32]
  kr: 0.01 min⁻¹
[33]
  Activity: 6%
[34]
  Activity: 61%
[35]
  Activity: 60%
[36]
  Activity: 42%
[37]
  kr: 0.06 min⁻¹
[38]
  Activity: 60%
[39]
  ks: 0.013 min⁻¹
[40]
  Activity: 98%
